Experimental data: ChEMBL document CHEMBL5233237, “Agonist and antagonist ligands of toll-like receptors 7 and 8: Ingenious tools for therapeutic purposes” (Eur J Med Chem, 2020)

Species on record: Homo sapiens
Experiment: Selectivity ratio of EC50 of TLR8 (unknown origin) to EC50 for TLR7 (unknown origin)

CCCN(CCC)C(=O)C1=Cc2ccc(-c3ccc(C(=O)N4CCCC4)cc3)cc2N=C(N)C1
Ratio EC50: 50
